Only a part is listed here, and it is no random draw. Active and inactive are the calls of the source.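 Rule for the calls: active = inhibition of at least 40% at 10 µM in the primary screen; inactive = the rest.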
What follows are compounds tested on intestinal alkaline phosphatase [Mus musculus] (assay: inhibitors of mouse IAP, primary screen, biochemical, luminescence, uHTS (AID 2806;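 note: plate controls were DMSO with enzyme for no effect and no enzyme wells for full effect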)). Conditions: purified mouse IAP, CDP-Star luminescence, 30 min; at 10 µM; stronger effect = higher value.

SMILES | inhibition
Cc1ccccc1OP(=O)(Nc1ccccn1)Oc1ccccc1C | inactive: 0%
Cc1ccc(OP(=O)(Nc2ccccn2)Oc2ccc(C)cc2)cc1 | inactive: -5.5%
CC(=O)NC(SC(=S)N(CC(C)C)CC(C)C)C(Cl)(Cl)Cl (stereo not drawn) | inactive: -3.6%
COC(=O)c1cc2c(s1)N=C(c1ccccc1)N(C)P2(=O)N1CCOCC1 (stereo not drawn) | inactive: -3%
CCC(=O)N1C2C3N(C(=O)CC)C1C1N(C(=O)CC)C(C(N1C(=O)CC)N3C(=O)CC)N2C(=O)CC | inactive: 4.4%
O=C(OC1CN2CCC1CC2)c1ccccc1 (stereo not drawn) | inactive: -5.6%
Cc1ccc(NP(=O)(Oc2ccccc2F)Oc2ccccc2F)nc1 | inactive: -7.7%
CN(C(=O)Cc1ccc(Cl)c(Cl)c1)[C@H]1CCCC[C@@H]1N1CCCC1 | inactive: -2.1%
Cc1cc(SC(NC(=O)c2ccc(F)cc2)C(Cl)(Cl)Cl)ncn1 (stereo not drawn) | inactive: -3.8%
CCOP(=O)(Nc1ccccc1)OCC | inactive: 9.5%
CC(=O)Nc1ccc([As](=O)(O)O)cc1 | inactive: -1.8%
O=C(O)c1ccccc1[As](=O)(O)O | inactive: 4.5%
O=P(Nc1nc2ccc(Cl)cc2s1)(c1ccccc1)c1ccccc1 | inactive: -4.1%
CCN(N=Nc1nonc1N)c1nonc1N | inactive: 15.6%
O=[N+]([O-])c1cc([N+](=O)[O-])c(CCN2CCOCC2)c([N+](=O)[O-])c1 | inactive: 22.8%
Cc1ccc(OP(=O)(Nc2nccs2)Oc2ccc(C)cc2)cc1 | inactive: 10.8%
COc1ccccc1OP(=O)(Nc1ccc(C)cn1)Oc1ccccc1OC | inactive: 5.5%
CN1CCCC(OC(=O)C(c2ccccc2)c2ccccc2)C1 (stereo not drawn) | inactive: 5.7%
Clc1ccc(Cl)c(NC2=NCC(CBr)S2)c1 (stereo not drawn) | inactive: -2.3%
NC(=O)c1cc([N+](=O)[O-])cc([N+](=O)[O-])c1N | inactive: -8.3%
Cc1ccc(N/C(=N/P(=O)(N2CCOCC2)N2CCOCC2)N2CCOCC2)cc1 | inactive: 11.6%
CN(C(=O)Cc1ccc(Cl)c(Cl)c1)[C@H]1CCCC[C@H]1N1CCCC1 | inactive: 3%

SMILES | inhibition
Nc1cc(N)c2nonc2c1[N+](=O)[O-] | inactive: 12.2%
CC(C)CC(=O)NC(Sc1ccc(Cl)cc1)C(Cl)(Cl)Cl (stereo not drawn) | inactive: -7.1%
O=C(NC(Sc1ccncn1)C(Cl)(Cl)Cl)c1ccccc1 (stereo not drawn) | inactive: -8%
Cc1c2non([O-])c-2c(C)[n+](=O)[n+]1[O-] | inactive: -1.9%
Oc1ccccc1CNc1ccccn1 | inactive: -3.1%
O=[N+]([O-])c1cccc2n[nH]nc12 | inactive: 6.3%
CC(=O)N1C2C3N(C(C)=O)C1C1N(C(C)=O)C(C(N1C(C)=O)N3C(C)=O)N2C(C)=O | inactive: 4.8%
CCc1nc2c(n1)c1c(non1O)c1c2no[n+]1[O-] | inactive: 6.1%
O=[N+]([O-])c1cc([N+](=O)[O-])c(CCNc2ccccc2)c([N+](=O)[O-])c1 | inactive: 12.2%
Cc1ccc(NP(=O)(Oc2ccccc2)Oc2ccccc2)nc1 | inactive: -18.2%
COc1ccc(C2=NCC(CBr)S2)cc1 (stereo not drawn) | inactive: -5.9%
CN(C)C(=O)OCCc1n(C)cc[n+]1C | inactive: 3.5%
CC(C)=N/N=C(\N)N[N+](=O)[O-] | inactive: -3.2%
CC1CCN(C(=O)Oc2c(Cl)cc(Cl)c3cccnc23)CC1 | inactive: 3.6%
C[N+]1=C2C=CC=CC=C2SC12C([N+](=O)[O-])=CC([N+](=O)[O-])=C[C-]2[N+](=O)[O-] (stereo not drawn) | active: 60.4%
Nc1ccc([As](=O)(O)c2ccc(N)cc2)cc1 | inactive: 1.8%
CCN(/C(=N/P(=O)(N1CCOCC1)N1CCOCC1)N1CCOCC1)c1ccc(OC)cc1 | inactive: 3.2%
O=C(Nc1cc([As](=O)(O)O)ccc1O)c1ccccc1 | inactive: 16.7%
O=[N+]([O-])c1cccc(NC2=NCC(CBr)S2)c1 (stereo not drawn) | inactive: 7.4%
CC(C)(C)C(=O)NC(Sc1ccncn1)C(Cl)(Cl)Cl (stereo not drawn) | inactive: -4.7%
O=[N+]([O-])c1ncn(CCn2ncnc2[N+](=O)[O-])n1 | inactive: 1.7%

— PubChem BioAssay AID2806 (Sanford-Burnham Center for Chemical Genomics, 2010)
